Measured values from PMC8792998 (Journal of medicinal chemistry, 2021).

System: C. parvum
Experiment: C. parvum time-kill curve
Format: cell-based, Cryptosporidium parvum
Conditions: compound added at multiples of EC90 24 hours after infection

O=C(Cc1ccc(Cl)c(Cl)c1)N1CCN(c2ccc3nncn3n2)CC1 [Compound 12a, 2-(3,4-Dichlorophenyl)-1-(4-{[1,2,4]triazolo[4,3-b]pyridazin-6-yl}piperazin-1-yl)ethan-1-one]
effect on parasite numbers in time-kill assay: parasite numbers declined exponentially
